Test results: article PMC9455983 (International Journal of Molecular Sciences, 2022)

Test system: C57BL/6J mice
Assay: Opioid antagonist activity of 1968-22 against opioid agonists (tail-withdrawal assay)
Details: 2.5 h pretreatment, 0.3 nmol i.c.v.; U50,488 10 mg/kg, i.p.

SMILES: Cc1cc(O)cc(C)c1C[C@H]1CN([C@@H](Cc2c(C)cc(O)cc2C)CN2C(=N)NC[C@@H]2C)C(=N)N1 [1968-22]
- antagonism of U50,488-induced antinociception: did not have an effect
